The test system of test [1] is 17β-HSD1 (Homo sapiens). The test is described as follows: Displacement of [3H]estrone human recombinant 17beta-HSD1 expressed in Escherichia coli BL21 (DE3)-RIL at 6 uM by scintillation counting in presence of NADPH.
Test [2] relates to 17β-HSD2 (Homo sapiens). The test is described as follows: Displacement of [3H]estradiol human recombinant 17beta-HSD2 expressed in Escherichia coli BL21 (DE3)-RIL at 6 uM by scintillation counting in presence of NAD+. For orientation: Displacement assays read how much labelled ligand stays bound in the presence of the test substance.
Test [3] has as its system 17β-HSD1 (Homo sapiens). The test is described as follows: Displacement of [3H]estrone human recombinant 17beta-HSD1 expressed in Escherichia coli BL21 (DE3)-RIL at 0.6 uM by scintillation counting in presence of NADPH.
Test [4] has as its system 17β-HSD2 (Homo sapiens). The test is described as follows: Displacement of [3H]estradiol human recombinant 17beta-HSD2 expressed in Escherichia coli BL21 (DE3)-RIL at 0.6 uM by scintillation counting in presence of NAD+.

Activity calls are given as the source filed them. The rule behind the calls is not given here.

Regarding `CC(=O)c1cc2ccc(O)cc2oc1=O`, the inhibition in the test on 17β-HSD1 (Homo sapiens) [1] came to 57%; with 17β-HSD1 (Homo sapiens) [3], 26%. Also, the inhibition result in the test with 17β-HSD2 (Homo sapiens) [2] and with 17β-HSD2 (Homo sapiens) [4] was “inactive” each time.
As to `CC(=O)c1cc2cc(Br)ccc2oc1=O`, the results for the inhibition with 17β-HSD1 (Homo sapiens) [1] and in the test on 17β-HSD1 (Homo sapiens) [3] were 19% and 8%, respectively.

What is called inhibition is how much of the control response was suppressed.
